# Antibody variant affinities, Ab-91 heavy chain, assay 2

From the AlphaSeq antibody data of Engelhart et al. 2022 (doi:10.1038/s41597-022-01779-4), copy in the FLAb collection.

All variants were tested on one target, the spike HR2 peptide PDVDLGDISGINAS (SARS-CoV-2).

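Library AAYL51 holds single substitutions and randomly drawn double and triple substitutions in the CDRs. AlphaSeq pools MATa yeast showing the antibodies with MATalpha yeast showing the peptide. Pairs that bind mate more often; barcode pairs of the diploids are counted by sequencing. The ratio of observed to expected reads was calibrated, replicate by replicate, on BCL2-family standards whose Kd was known from biolayer interferometry. Mating was done three times.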

The variants keep the light chain, the linker and the frameworks of Ab-91 (scFv order VL, a (GGGGS)3 linker, VH).
VL: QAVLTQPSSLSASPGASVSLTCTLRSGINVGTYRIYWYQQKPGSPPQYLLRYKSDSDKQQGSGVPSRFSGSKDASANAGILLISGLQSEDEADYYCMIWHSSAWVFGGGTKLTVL
VH: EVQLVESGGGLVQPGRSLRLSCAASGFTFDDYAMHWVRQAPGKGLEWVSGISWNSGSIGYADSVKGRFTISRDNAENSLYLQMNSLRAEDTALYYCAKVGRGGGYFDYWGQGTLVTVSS

Each variant is given by its three heavy chain CDRs, as the data file delimits them; those of the parent are GFTFDDYAMH, GISWNSGSIGYADSVK, VGRGGGYFDY.
This list gathers variants with a substitution at N54 (VH, numbered from residue 1).
Values are log10 of the apparent Kd in nM; lower means stronger binding.
An entry "ND" has no value in the source: the pair was not observed among the diploids in that replicate. This suggests poor binding but is not conclusive.
Empty control strains, which show no peptide, gave a signal in 21% of pairings with library AAYL51; the median was 4.54 and 95% of these signals were weaker than 3.26. No background was subtracted. For each scFv, signals with the empty controls are counted beside the result.

* GFTFDDYKMH | GISWCSGSIGYAPSVK | VGRGGGYFDY: ND, ND, 4.19 (controls 3 of 9)
* GFTFDDYAMH | GISWMSGSTGYADSVK | VGRGGGCFDY: 2.53, 2.09, 3.72 (controls 0 of 9)
* GFTFDDYAMH | GPSWESGSIGGADSVK | VGRGGGYFDY: ND, 5.91, ND (controls 2 of 9)
* GFTFDDYAMH | GISWMSGSIPYADSVK | VGRIGGYFDY: ND, ND, ND (controls 0 of 9)
* GFTFDQYAMH | GISWCSGSIGYADSVK | VGRGGGYFFY: ND, 4.95, ND (controls 0 of 9)
* GFTFDDYAMH | GSSWRSGSIGYADDVK | VGRGGGYFDY: 5.10, 5.54, 5.31 (controls 3 of 9)
* GFTFHDYAMW | GISWFSGSIGYADSVK | VGRGGGYFDY: ND, ND, ND (controls 0 of 9)
* GFTFDDYAMH | GISSMSGSIGYADSNK | VGRGGGYFDY: 5.38, 4.34, 4.56 (controls 3 of 9)
* TFTFDDYAMH | GISWFSWSIGYADSVK | VGRGGGYFDY: ND, ND, ND (controls 1 of 9)
* GFTFDDYAMH | GISWISGSHGYADSVK | VGRGGGYFDY: ND, 4.92, ND (controls 2 of 9)
* MFTFDDYAMH | GISWVPGSIGYADSVK | VGRGGGYFDY: ND, ND, 4.83 (controls 4 of 9)
* GFTFDDYAMH | GISWPSGSQGYADSVK | NGRGGGYFDY: ND, ND, ND (controls 0 of 9)
* KFTFDDYAMH | GISWKSGSIGYADSVK | VGDGGGYFDY: ND, ND, ND (controls 1 of 9)
* NFTFDDYAMH | GNSWLSGSIGYADSVK | VGRGGGYFDY: 5.98, 4.95, ND (controls 4 of 9)
* GFTFDDYAMH | GPSWWSGSIGYADSVK | VWRGGGYFDY: ND, ND, ND (controls 0 of 9)
* GFTFDDYAMH | GISWPSGSIGYADYVK | VGHGGGYFDY: ND, ND, ND (controls 0 of 9)
* GFTFDDYAMH | GISWGSGSIGYADSVF | VGRGGGWFDY: ND, ND, ND (controls 0 of 9)
* GFTFDDYAVH | GISWSSGSIGYADSVK | VGRGGGYFDY: ND, ND, 2.27 (controls 0 of 9)
* GFTFDDYAMH | GISWQSGSIGYADSVK | VGRGGALFDY: 2.79, 2.47, 2.91 (controls 2 of 9)
* GFTFDRYAMH | GISWRSGSIGYADSVK | VGRGGGHFDY: ND, ND, ND (controls 0 of 9)
* GFTFDDYAMH | GNSWSCGSIGYADSVK | VGRGGGYFDY: 4.58, ND, 3.48 (controls 1 of 9)
* GFTFDDYAMH | GISWSSGSLGYADSVK | VGRGGRYFDY: 4.30, ND, ND (controls 4 of 9)
* GFTFDDYAMH | GISWGSGSIGYADSVK | KGRGGGYCDY: ND, ND, ND (controls 2 of 9)
* GFTFDDYAMP | GISWLSGSIGYADSVK | SGRGGGYFDY: ND, ND, ND (controls 1 of 9)
* GMTFDDYAMH | GIRWRSGSIGYADSVK | VGRGGGYFDY: ND, ND, ND (controls 1 of 9)
* GFTFDDYAMH | GISWKSGAIGYADSVK | VGRGGMYFDY: ND, 6.08, ND (controls 3 of 9)
* GFTFDDYAMK | GISWPSGSIGYADSVK | VGRGTGYFDY: ND, ND, ND (controls 1 of 9)
* GFTFDDYAMH | GISWHSGSIGYADSVK | VGRGGGYFDY: ND, ND, ND (controls 0 of 9)
* GFTFDDYAMH | GISWKSGSIGYADSVQ | VGRGGLYFDY: 4.72, ND, 4.69 (controls 3 of 9)
* GFTFDDTTMH | GISWTSGSIGYADSVK | VGRGGGYFDY: ND, 3.72, ND (controls 1 of 9)

For reference, 3 entries of the list once more:

CDR-H1	CDR-H2	CDR-H3	log10 Kd (nM) by replicate	empty controls
GFTFDDTTMH	GISWTSGSIGYADSVK	VGRGGGYFDY	ND, 3.72, ND	1/9
GMTFDDYAMH	GIRWRSGSIGYADSVK	VGRGGGYFDY	ND, ND, ND	1/9
GFTFDRYAMH	GISWRSGSIGYADSVK	VGRGGGHFDY	ND, ND, ND	0/9